# scFv variants of Ab-14 (light chain) against a SARS-CoV-2 spike peptide

Target peptide (SARS-CoV-2 spike, HR2 region): PDVDLGDISGINAS

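Phage display of a naive human antibody library on the peptide gave the parent. The variants were designed computationally from a first round of random CDR variants and then made and measured. Group labels follow the data file (Ctrl: baseline library sampled from a position-specific scoring matrix, with some repeated check sequences; GP: Gaussian process model; HC: hill climbing; Gen: genetic algorithm; Gibbs: Gibbs sampling; a sequence that several methods proposed may carry one label only). The scFvs were displayed on barcoded MATa yeast, the peptide on MATalpha yeast. Binding brings cells together so that they mate, and sequencing counts the barcode pairs among the diploids. Scores were corrected for input abundance and mapped to Kd with protein pairs of known affinity run in the same pool. Mating was done six times.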

Parent scFv Ab-14: VH joined to VL by a (GGGGS)3 linker. Changes lie in the light chain CDRs alone.
VH: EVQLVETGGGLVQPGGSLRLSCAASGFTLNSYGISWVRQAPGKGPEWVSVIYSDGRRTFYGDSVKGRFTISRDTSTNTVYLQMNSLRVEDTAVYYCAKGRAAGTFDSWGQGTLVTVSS
VL: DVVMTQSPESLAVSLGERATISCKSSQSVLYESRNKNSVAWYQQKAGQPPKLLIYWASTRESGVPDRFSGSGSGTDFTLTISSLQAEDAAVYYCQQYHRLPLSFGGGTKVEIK

Substitutions are numbered in sequence along the VL above, starting at 1 (not Kabat). Variants here have at most six changes. Values are log10 of the apparent Kd in nM; lower means stronger binding. "n.d." means that the variant was in the library but no mating with the target was seen in that replicate; the authors take this as a sign of poor binding, and no number exists. Values of this round are not directly comparable with the first-round values of the same sequences. The authors' rule: three or more of the six replicates give a measured affinity, fewer mean a poor binder. Empty control strains, which show no peptide, gave a signal in 4% of pairings with all light chain designs; the median was 2.64 and 95% of these signals were weaker than 1.59. No background was subtracted.

| changes | group | replicates, log10 nM |
|---|---|---|
| V29G/R34C | Ctrl | n.d. / n.d. / n.d. / n.d. / n.d. / n.d. |
| S25K/S58K | Ctrl | n.d. / n.d. / n.d. / n.d. / n.d. / n.d. |
| S25I/R34A/R99H | Ctrl | 1.53 / 1.23 / 1.70 / 1.28 / 1.51 / 1.91 |
| S28M/V29L/R99G | Ctrl | n.d. / n.d. / n.d. / n.d. / n.d. / n.d. |
| S26P/W56H/S62D | GP_HC | -0.04 / 0.09 / -0.17 / -0.20 / -0.16 / 0.07 |
| V29F/Y31G | Ctrl | 0.70 / 0.98 / 1.60 / 0.68 / 0.84 / 0.68 |
| K24N/S25L/V29W/W56D/A57G/S58N | GP_HC | 0.11 / 0.12 / -0.30 / -0.35 / -0.25 / -0.07 |
| K24N/V29W/W56E/A57G/S58N | GP_HC | -0.15 / -0.04 / -0.20 / -0.05 / -0.13 / 0.11 |
| K24I/S25A/S26A/V29W/W56G/S103I | GP_HC | 0.33 / -0.13 / 0.10 / -0.03 / 0.23 / 0.28 |
| S25L/Y31M/W56N/S62E | GP_Gen | -0.13 / -0.30 / -0.25 / -0.32 / -0.10 / -0.15 |
| S25L/S26R/V29Q/K36P/W56N | GP_HC | -0.08 / -0.26 / -0.45 / -0.49 / -0.42 / -0.29 |
| S25L/S26P/V29E/W56E/E61M | GP_Gen | -0.27 / -0.07 / -0.22 / -0.33 / -0.06 / 0.08 |
| S25M/S26L/V29H/W56N/S62T | GP_Gibbs | 0.51 / 0.38 / 0.18 / 0.23 / 0.47 / 0.47 |
| S25F/N37A/W56D/E61M | GP_Gibbs | -0.01 / -0.26 / -0.01 / -0.19 / -0.48 / -0.04 |
| S25L/S103C | Ctrl | -0.15 / 0.65 / -0.35 / 0.02 / 0.44 / -0.12 |
| K24H/W56N/E61M | GP_HC | 1.82 / 1.53 / 2.00 / 1.54 / 1.95 / 1.98 |
| S25F/L30T/Y31M/R34Q/W56E | Ctrl | -0.65 / -0.49 / -0.82 / -0.73 / -0.05 / 0.05 |
| L30S/R99G | Ctrl | n.d. / n.d. / n.d. / n.d. / n.d. / n.d. |
| S26L/S28M/V29W/W56H/S62D/R99Q | GP_HC | 0.69 / 0.42 / 0.24 / 0.21 / 0.84 / 0.60 |
| V29G/K36D/W56E/Q96A | Ctrl | 1.60 / 1.06 / 1.42 / 0.93 / 1.66 / 1.52 |
| S25M/N37M/S103D | Ctrl | n.d. / 2.52 / 3.03 / n.d. / 3.85 / n.d. |
| S25I/V29W/R34T/W56G/L102F/S103M | Ctrl | 0.55 / 0.80 / 0.49 / 1.01 / 0.10 / 0.40 |
| S25L/K36Q/W56N/S62V | GP_Gen | -0.32 / 0.21 / -0.84 / -0.55 / 0.00 / -0.44 |
| S25M/V29E/W56N/T59Q/E61M | GP_Gen | -0.11 / -0.13 / -0.15 / -0.37 / -0.40 / -0.09 |
| S26K/W56N | Ctrl | 0.64 / 0.80 / 1.04 / 0.58 / 0.57 / 0.96 |
| S25L/W56D/T59L | Ctrl | -0.68 / -0.85 / -1.12 / -0.91 / -1.13 / -0.98 |
| S25V/S33H/W56R/Y97H | Ctrl | n.d. / n.d. / n.d. / n.d. / 3.20 / n.d. |
| K24H/Q27P/S38A/W56N | GP_HC | 0.02 / -0.01 / -0.01 / -0.08 / -0.16 / 0.30 |
| W56D/S58F/T59V | Ctrl | 0.31 / 0.07 / 0.16 / 0.18 / 0.23 / 0.00 |
| S26N/Q27I/W56H/H98R | Ctrl | 1.87 / 1.76 / 1.81 / 2.61 / 2.50 / 2.11 |
| S25L/S26R/V29T/K36P/W56T | GP_HC | -0.07 / 0.06 / -0.20 / 0.06 / -0.09 / 0.02 |
| L102F | Ctrl | 2.45 / 1.52 / 2.20 / 2.21 / 1.28 / 1.79 |
| W56A/S62I/R99D | Ctrl | n.d. / n.d. / n.d. / n.d. / n.d. / n.d. |
| S25L/S33A | Ctrl | 1.44 / 1.11 / 1.42 / 1.15 / 1.49 / 1.40 |
| R34S/E61M | Ctrl | 1.72 / 2.22 / 1.77 / 2.45 / 1.42 / 1.31 |
| W56K/T59R | Ctrl | n.d. / 3.05 / 2.16 / 1.96 / 2.22 / n.d. |
| S26Q/V29Q/L30E/W56Q/S62D | GP_HC | -0.02 / 0.03 / 0.04 / -0.01 / 0.00 / 0.13 |
| S26P/V29M/L30M/Y97G | Ctrl | n.d. / n.d. / n.d. / n.d. / n.d. / n.d. |
| S25L/S33T/W56N | GP_Gen | -0.17 / -0.27 / -0.32 / -0.42 / -0.32 / -0.17 |
| K24H/S25V/Q27P/W56N/L102F | GP_HC | -0.09 / -0.18 / -0.23 / -0.25 / -0.22 / -0.13 |
| S25V/S26Q/V29T | GP_HC | n.d. / n.d. / 1.39 / 1.32 / n.d. / n.d. |
| Q27I/V29Y/K36Q/W56E/S62Q | GP_HC | 0.23 / 0.20 / 0.38 / 0.40 / 0.54 / 0.39 |
| S25Q/L30D/W56D/E61S | GP_HC | 0.71 / 0.41 / 0.32 / 0.28 / 0.15 / 0.68 |
| S25M/S26E/S28G/V29N/W56G/T59V | GP_HC | -0.06 / -0.32 / -0.55 / -0.27 / -0.38 / -0.41 |
| Q27Y/R34H/W56N/E61M | GP_HC | 1.69 / 1.19 / 0.87 / 1.16 / 1.73 / 1.41 |
| S25F/L30H/N35T/W56N | GP_HC | 0.03 / 0.03 / -0.06 / -0.18 / -0.14 / 0.16 |
| K24R/S25I/W56D | GP_HC | 0.03 / 0.10 / 0.23 / -0.08 / -0.13 / 0.12 |
| S25V/L30P/S33D/W56N/T59Q | GP_Gen | 0.06 / 0.07 / 0.13 / -0.06 / 0.05 / 0.01 |
| V29A/K36V/W56G/E61D | GP_HC | 0.21 / 0.12 / -0.15 / -0.14 / 0.08 / -0.04 |
| S26Y/L30I/Y31D/E32N/S33E | Ctrl | 3.03 / 1.87 / 1.95 / 2.54 / 2.33 / 1.58 |
| S25T/S26Y/Q27V/V29Q/W56Q/T59E | GP_Gibbs | -0.12 / -0.50 / -0.40 / -0.84 / -0.69 / -0.30 |

Again, the first 3 entries without any signal:

{"changes": "V29G/R34C", "group": "Ctrl", "replicates, log10 nM": "n.d. / n.d. / n.d. / n.d. / n.d. / n.d."}
{"changes": "S25K/S58K", "group": "Ctrl", "replicates, log10 nM": "n.d. / n.d. / n.d. / n.d. / n.d. / n.d."}
{"changes": "S28M/V29L/R99G", "group": "Ctrl", "replicates, log10 nM": "n.d. / n.d. / n.d. / n.d. / n.d. / n.d."}

From the AlphaSeq antibody data of Li et al. 2023 (doi:10.1038/s41467-023-39022-2), copy in the FLAb collection.